Data reported in patent US8604038B2, “Pyrrolidine derived beta 3 adrenergic receptor agonists” (Merck Sharp & Dohme Corp., priority 2009, dated 2013).

The chains behind the UniProt entries cited, without tags or fusion partners.
UniProt P13945, whole entry: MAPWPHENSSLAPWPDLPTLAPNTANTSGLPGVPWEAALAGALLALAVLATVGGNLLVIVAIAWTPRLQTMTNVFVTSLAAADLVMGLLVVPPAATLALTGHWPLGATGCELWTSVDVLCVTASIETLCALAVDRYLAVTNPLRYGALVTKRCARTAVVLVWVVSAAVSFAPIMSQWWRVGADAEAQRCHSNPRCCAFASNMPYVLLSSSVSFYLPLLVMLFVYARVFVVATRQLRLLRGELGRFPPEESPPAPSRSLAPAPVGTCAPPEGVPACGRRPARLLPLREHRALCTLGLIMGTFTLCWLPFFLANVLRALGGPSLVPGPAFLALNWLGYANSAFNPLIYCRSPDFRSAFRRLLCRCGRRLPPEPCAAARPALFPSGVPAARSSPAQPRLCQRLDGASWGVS

Target: human β3 adrenergic receptor (Homo sapiens, UniProt P13945)
Assay: Beta-3 agonist in vitro functional assay (cAMP production, LANCE, transfected CHO cells)
Conditions: read-out: Human β3 agonist functional activity, Table 3, CHO cells with cloned β3 receptor, ligands titrated 10^-12 M to 10^-5 M

| SMILES | EC50 |
| --- | --- |
| CCN(C[C@H]1OCCc2ccccc21)C(=O)c1ccc(C[C@@H]2CC[C@H]([C@H](O)c3ccccc3)N2)cc1 | 10 to 99.9 nM |
| CC(C)CN(Cc1ccccn1)C(=O)c1ccc(C[C@@H]2CC[C@H]([C@H](O)c3ccccc3)N2)cc1 | 10 to 99.9 nM |
| CCc1ccccc1OCCCN(C)C(=O)c1ccc(C[C@@H]2CC[C@H]([C@H](O)c3ccccc3)N2)cc1 | 100 to 999 nM |

The remaining lines, values ahead:

| EC50 | SMILES |
| --- | --- |
| 100 to 999 nM | CN(C[C@@H]1CCN(c2ccccc2)C1)C(=O)c1ccc(C[C@@H]2CC[C@H]([C@H](O)c3ccccc3)N2)cc1 |
| 1 to 9.9 nM | CN(C[C@@H]1COc2ccccc2O1)C(=O)c1ccc(C[C@@H]2CC[C@H]([C@H](O)c3ccccc3)N2)cc1 |
| 10 to 99.9 nM | C=CCN(C(=O)c1ccc(C[C@@H]2CC[C@H]([C@H](O)c3ccccc3)N2)cc1)[C@H]1CCS(=O)(=O)C1 |
